Glioma ERSR ind = induces the endoplasmic reticulum stress response in human glioma cells; Potency, µM, inactives show at the highest dose activation, most hits filed as activators; AID 602332; actives 0.02% (n = 420,000); U87-MG GRP78 promoter luciferase reporter, 16 h; note: potency is the fitted concentration of half-maximal effect; series mostly up to about 76 µM; % of control where 0% means no effect; nearly all actives have a fitted effect of over 35% in size
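ERSR induction read as luciferase luminescence (Bright-Glo, 10 min at room temperature) in stably transfected human U87-MG glioma cells exposed to compounds for 16 h, using GRP78 as sensor.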
PTAP TSG101 blk = blocks PTAP/TSG101 interaction to inhibit HIV-1 budding; AID 493005; 340,000 tested, under 10 active; Q99816; Potency, µM (highest dose often 115 µM), for the others: at the highest dose activity change, negative = inhibition, usual class: inhibitors; Fluorescence polarization, FITC-PTAP peptide / Tsg101 binding; active = well fitted inhibition curve with a large enough effect in the main read-out, with a control signal flat, not every such curve was filed as active; inconclusive = small, poorly fitted or top-dose-only effect, or effect the other way, or a change in a side signal; inactive = no such curve, though single readings can be large or run the other way; note: potency is the fitted concentration of half-maximal effect; % of control where 0% means no effect
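FP read-out: FITC-PTAP peptide, 50 nM final, binding Tsg101 binding domain, 10 uM final; 20 min, r.t.; 10 mM HEPES pH 7.5, 0.15 M NaCl, 0.01% Tween 20, 3 mM EDTA, 0.1 mM TCEP.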
Nrf2 ARE act = activates Nrf2 signaling; AREc32 ARE-luciferase reporter (MCF7-derived line), luminescence, 24 h; Potency, µM (titrated, usually from 46.1 µM), without a hit: at the highest dose activation, hits mostly activators; actives 0.31% (n = 410,000); note: potency is the fitted concentration of half-maximal effect; % of control where 0% means no effect; nearly all actives have a fitted effect of over 65% in size
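ARE activation measured as luciferase luminescence (Steady-Glo, 30 min RT) in AREc32_Fluc cells after 24 hr compound exposure at 37 deg C, 5% CO2; cells seeded overnight at 1000/well in OPTI-MEM, 5% FBS.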
Nrf2 inh = inhibitors of Nrf2 signaling | actives 2.1% (n = 360,000) | A549 ARE-Fluc reporter, luciferase luminescence, 18-24 h | Potency, µM (series often up to 46 µM), for the others: top-dose activity change, negative = inhibition, actives largely listed as inhibitors; note: potency is the fitted concentration of half-maximal effect; % is set by controls: 0 for no effect and ±100 for the full control effect; nearly all actives have a fitted effect of over 60% in size
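A549 ARE_Fluc cells (5000/well, 5% FBS OPTI-MEM) pre-incubated 2 h, then treated with compounds 18-24 h at 37C/5% CO2 in concentration-response. CellTiter-Fluor viability read first; BugLite luciferase luminescence after 15 min at room temperature gives Nrf2 activity.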
miR-21 FLuc = raises the signal of a miR-21 reporter; 340,000 tested, under 10 active; HeLa miR-21 FLuc reporter, luciferase, 48 h; Potency, µM (series often up to 38.3 µM), for inactives: at the highest dose reporter change, positive = more light; active = well fitted rising curve with a large enough effect; inconclusive = small, poorly fitted or top-dose-only effect; inactive = no such curve, though single readings can be large or run the other way;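 further: % of control where 0% means no effect; miR-21 action dims this reporter so a rising signal means less miR-21 action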
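Compounds were titrated across several concentrations (up to approximately 40 uM) and incubated 48 hours with HeLa miR-21-FLuc reporter cells (miR-21 target sequence downstream of FLuc, endogenous miR-21). Readout was firefly luciferase luminescence after lytic detection reagent.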
A549 tox = A549 cytotoxicity, counter-screen for Nrf2 inhibitors; A549 ARE-Fluc cells, CellTiter-Fluor viability, 18-24 h; Potency, µM (highest dose often 46 µM), for the others: top-dose activity change, negative = cytotoxicity, most hits filed as inhibitors; actives 0.16% (n = 390,000); note: potency is the fitted concentration of half-maximal effect; % is set by controls: 0 for no effect and ±100 for the full control effect
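A549 ARE_Fluc cells in 5% FBS OPTI-MEM were exposed to compounds in concentration-response for 18-24 h at 37 deg C. Viability was read by CellTiter-Fluor fluorescence (Ex 405/Em 525) after 30 min, before the luciferase read.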
* = called active by the depositor; ? = inconclusive; . = no result given. Compounds with a hit are over-represented: about 2.1% of the library has one in this group of screens. Unless noted, calls come from the whole dose curve; as a rule, active = well fitted curve in the direction sought with a large enough effect; inconclusive = small, poorly fitted or top-dose-only effect, or another doubt; inactive = no such curve, though single readings can be large; an effect the other way counts as inactive or inconclusive.

SMILES	Glioma ERSR ind	PTAP TSG101 blk	Nrf2 ARE act	Nrf2 inh	miR-21 FLuc	A549 tox
Cc1cccc(-c2noc(CCCC(=O)NC3CCCC3)n2)c1	-2.4%	-5.5%	0.6%	9.2µM*	16.2%	1.6%
COc1cccc(CN2CCC3(CCC(CNC(=O)c4ccccc4)O3)CC2)c1 (configuration not stated)	-3.1%	.	.	.	.	.
COc1ccc(C)cc1NC(=O)C(OC(=O)CNC(=O)c1ccccc1)c1ccccc1 (configuration not stated)	.	.	.	-0.7%	.	-4.9%
COC(=O)c1ccc(CN2CCC3(CCC(CNC(=O)c4ccco4)O3)CC2)cc1 (configuration not stated)	0.5%	.	.	.	.	.
c1ccc(N=NC2=NN(c3ccccc3)CS2)cc1	2.0%	.	8.91µM*	.	.	.
c1ccc(C2=NN(c3ccccc3)CC2)cc1	5.7%	-9.1%	15.7%	?	-79.0%	8.4%
Cn1cc(C(=O)c2ccc(Cl)cc2Cl)cc1C(=O)N/N=C(\N)COc1ccc(Cl)cc1	-3.6%	-1.4%	-0.6%	13µM*	?	-20.0%
Cn1cc(C(=O)c2ccc(Cl)cc2Cl)cc1C(=O)N/N=C(\N)COc1ccc(F)cc1	-9.2%	-5.4%	1.9%	?	?	-19.7%
Cn1cc(C(=O)c2ccc(Cl)cc2Cl)cc1C(=O)N/N=C(\N)COc1ccccc1	-8.0%	-6.0%	0.4%	?	10.7%	-11.0%
Cn1cc(C(=O)c2ccc(Cl)cc2Cl)cc1C(=O)N/N=C(\N)COc1ccc(Cl)cc1Cl	-8.0%	-5.1%	-1.2%	20.6µM*	?	?

Look-ups from the list.
Glioma ERSR ind with `Cc1cccc(-c2noc(CCCC(=O)NC3CCCC3)n2)c1` = -2.4%
Nrf2 ARE act with `Cn1cc(C(=O)c2ccc(Cl)cc2Cl)cc1C(=O)N/N=C(\N)COc1ccccc1` = 0.4%

(further entries)
SMILES	Glioma ERSR ind	PTAP TSG101 blk	Nrf2 ARE act	Nrf2 inh	miR-21 FLuc	A549 tox
COc1cccc(NC(=O)C(OC(=O)CNC(=O)c2ccccc2)c2ccccc2)c1 (configuration not stated)	.	.	.	?	.	-4.1%
CC(NC(=O)c1ccco1)c1nnc2n1CCN(Cc1ccc(N(C)C)cc1)CC2 (configuration not stated)	-1.0%	.	.	.	.	.
COc1ccc(C(=O)NCc2nc(-c3cccc(NC(=O)c4ccc(C)s4)c3)oc2C)cc1	-5.2%	.	.	.	.	.
C/C(=N\NC(=O)CSCc1ccc(Cl)cc1)c1ccc2c(c1)OCCO2	-5.1%	-5.5%	-0.3%	16.4µM*	1.9%	-7.0%
O=C(c1ccc2c(=O)n(C3CCCC3)c(=S)[nH]c2c1)N1CCCCCC1	-2.3%	-1.2%	-1.4%	16.4µM*	25.0%	-21.5%
O=C(c1ccc2c(=O)n(-c3ccccc3)c(=S)[nH]c2c1)N1CCCCC1	-4.0%	-4.3%	-0.5%	7.31µM*	17.3%	-3.1%
CC(=O)c1ccc(F)c(-c2cc(C)cc3c2OC(CNC(=O)C[C@@H]2C[C@@H](C)NC(=S)N2)C3)c1 (some centres not stated)	0.1%	.	.	.	.	.
COc1ccc(C(=O)Nc2ccc3nc(N4CCOCC4)sc3c2)cc1OC	-0.3%	1.8%	-0.2%	-10.5%	.	0.2%
CCCn1nc(C(=O)Nc2ccc3nc(N4CCOCC4)sc3c2)ccc1=O	-6.5%	-1.5%	2.6%	20.6µM*	.	-14.4%
O=C(NCC1(N2CCCCC2)CCCCC1)c1ccc(-n2cc(NC(=O)c3cccnc3)cn2)cc1	-6.9%	.	.	.	.	.
c1ccc(N2CCN(c3nc(-c4ccccn4)nc4ccccc34)CC2)cc1	-4.4%	0.5%	-0.5%	16.4µM*	?	?
COc1ccc(-c2noc(CSc3nnc(C)n3-c3ccc(C)c(C)c3)n2)c(OC)c1	-3.1%	.	7.7%	-28.8%	-3.1%	-3.0%
CCOc1ccc(-n2c(Cc3ccccc3)nnc2SCc2nc(-c3cccs3)no2)cc1	-2.8%	.	6.2%	18.4µM*	0.7%	?
COc1ccccc1-c1noc(CSc2nnc(Cc3ccccc3)n2-c2ccc(C)c(C)c2)n1	-5.3%	.	-2.7%	23.1µM*	3.1%	?
COCc1cc(=O)[nH]c(Nc2nc3ccc(C)cc3o2)n1	?	-8.1%	12.6µM*	?	-36.0%	?
CCc1ccc2nc(Nc3nc(COC)cc(=O)[nH]3)nc(C)c2c1	-3.1%	-2.2%	-0.1%	-12.4%	-19.8%	3.7%
CSc1nnc(CCNC(=O)/C=C/c2cccc(F)c2)n1-c1ccc(F)cc1	-4.1%	.	.	.	.	.
N#CC1=C2SCC(O)(c3ccccc3)N2C(=O)CC1c1ccccc1F (configuration not stated)	-5.3%	-6.2%	5.1%	10.3µM*	15.3%	-6.0%
Cc1cc(C)cc(C(=O)OCC(=O)Nc2cccc(S(=O)(=O)NC3=NCCCCC3)c2)c1	-4.4%	-7.7%	1.5%	23.1µM*	0.0%	?
O=C(/C=C/c1ccc(OC(F)F)cc1)Nc1cccc(S(=O)(=O)NC2=NCCCCC2)c1	1.6%	1.3%	-0.8%	18.4µM*	20.6%	?

3 compounds picked at random from the list so far:
SMILES	Glioma ERSR ind	PTAP TSG101 blk	Nrf2 ARE act	Nrf2 inh	miR-21 FLuc	A549 tox
CCc1ccc2nc(Nc3nc(COC)cc(=O)[nH]3)nc(C)c2c1	-3.1%	-2.2%	-0.1%	-12.4%	-19.8%	3.7%
O=C(c1ccc2c(=O)n(C3CCCC3)c(=S)[nH]c2c1)N1CCCCCC1	-2.3%	-1.2%	-1.4%	16.4µM*	25.0%	-21.5%
Cn1cc(C(=O)c2ccc(Cl)cc2Cl)cc1C(=O)N/N=C(\N)COc1ccc(Cl)cc1Cl	-8.0%	-5.1%	-1.2%	20.6µM*	?	?

Next records:
SMILES	Glioma ERSR ind	PTAP TSG101 blk	Nrf2 ARE act	Nrf2 inh	miR-21 FLuc	A549 tox
O=C(Cc1csc(-c2ccc(F)cc2)n1)Nc1cccc(S(=O)(=O)NC2=NCCC2)c1	-0.7%	-6.5%	0.3%	?	.	-17.5%
O=C(Cc1csc(-c2ccc(Cl)cc2)n1)Nc1cccc(S(=O)(=O)NC2=NCCC2)c1	-5.5%	0.5%	0.8%	23.1µM*	.	?
CC(C)(C)c1ccc(OCCC(=O)Nc2cccc(S(=O)(=O)NC3=NCCCCC3)c2)cc1	-5.2%	-0.5%	0.3%	18.4µM*	.	?
CC(=O)c1ccccc1-c1ccc2c(c1)CC(CNC(=O)Cc1c[nH]c3ccccc13)O2 (configuration not stated)	-2.4%	.	.	.	.	.
CCC1(C2CCN(C(=O)c3ccccc3C)CC2)NC(=O)N(CCc2scnc2C)C1=O (configuration not stated)	-4.8%	.	.	.	.	.
COc1ccc(Cl)cc1NC(=O)CCCn1c(=O)c2cccn2c2cccnc21	-3.8%	.	2.9%	16.4µM*	-1.7%	-1.3%
Fc1ccc(COc2cccc(CNCc3ccncc3)c2)cc1	0.6%	-2.8%	3.1%	14.6µM*	7.9%	-1.0%
CCC1CN(CC(=O)NCc2ccc3c(c2)OCO3)Cc2ccc(Cl)cc2O1 (configuration not stated)	-3.6%	.	.	.	.	.
CCOc1cc(C(=O)Nc2ccc(-c3cn4cccnc4n3)cc2)cc(OCC)c1OCC	15.5%	.	-0.7%	?	9.8%	-9.2%
Cc1ccc(C(=O)Nc2ccc(-c3cn4cccnc4n3)cc2)cc1C	-8.4%	.	-1.2%	23.1µM*	-20.3%	-11.3%

Profiles as entered above. Order of screens: Glioma ERSR ind | PTAP TSG101 blk | Nrf2 ARE act | Nrf2 inh | miR-21 FLuc | A549 tox
Fc1ccc(COc2cccc(CNCc3ccncc3)c2)cc1 is entered as 0.6% | -2.8% | 3.1% | 14.6µM* | 7.9% | -1.0%
Cc1ccc(C(=O)Nc2ccc(-c3cn4cccnc4n3)cc2)cc1C is entered as -8.4% | . | -1.2% | 23.1µM* | -20.3% | -11.3%

Compound activity (PubChem BioAssay)
